The results in this text go back to patent publication US9314525B2, “Picropodophyllin polymorph C and its use in cancer therapy” (Axelar AB, priority 2010, dated 2016).

Molecules are shown by their SMILES. ≈ marks a conversion by molar mass, not a printed value.

The series is described as follows: Powder dissolution profiling (intrinsic dissolution rate and apparent solubility) in PhB 6.5 and FeSSIF pH 6.5. The note with it: 37 °C, pH 6.5, fessif, thermodynamic from solid, Apparent Solubility assay 1, FeSSIF pH 6.5, 37° C.; assay time polymorph B 16 hours, polymorph C 1.3 hours; triplicate. On the procedure:
Phosphate buffer pH 6.5 (PhB 6.5) was prepared according to a protocol by Galia and co-workers (Galia, E., et al. Evaluation of various dissolution media for predicting in vivo performance of class I and II drugs. Pharm Res 15, pp. 698-705 (1998)). Briefly, 1000 mL of […] Na2HPO4 buffer pH 6.5 was prepared by dissolving 3.95 g Na2HPO4xH2O, 6.19 g NaCl and 0.42 g NaOH in a volumetric flask by adding purified water. The pH was adjusted to pH to 6.5 by titration with 0.5 M NaOH and the volume was adjusted to 1000 mL with purified water. This buffer was sterile filtered and thereafter stored in refrigerator. […]
Dissolution rate and apparent solubility was measured with the pDISS Profiler™ (pION INC, MA, USA) from 0.3-1.3 mg compound weighed into the vial to which the preheated (37° C.) dissolution medium was added. […] The obtained results were analysed with the software accompanying the pDISS equipment. […]

A word on the solubility: it is the concentration that dissolves in the medium under given conditions. On to `COc1cc([C@@H]2c3cc4c(cc3[C@H](O)[C@H]3COC(=O)[C@@H]23)OCO4)cc(OC)c1OC` [polymorph C, picropodophyllin], for which the solubility turned out to be 12.9 ± 0.17 µg/mL (≈ 31.2 µM).
